According to the supplement of paper PMC9135407:
Only a part is listed here, and it is no random draw.

These molecules were tested on primary human hepatic stellate cells (donor 1) (assay: scaled lipid accumulation score (0 = DMSO-like, 1 = nortriptyline-like); higher = stronger HSC inactivation (lipid re-accumulation), active = hit call of the paper). Conditions: library stock concentration: 10 mM; 48 h;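 active = score above a cut-off or among the top three wells of a plate; in these data no inactive exceeds 0.85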.
Experimental: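 Primary lipid accumulation screen in primary human hepatic stellate cell myofibroblasts (donor 1, passage 8) in 384-well plates. 100 nL of library compound was pin-transferred into 30 µL medium in duplicate, and cells were treated for 48 h. The 'Scaled' score combines distance from plate baseline, toxicity and reproducibility penalties, and is normalised to nortriptyline (positive) and DMSO (negative) controls on each plate. A hit is defined as scaled >0.85 or among the top 3 wells per plate.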

Structure (SMILES) | scaled lipid accumulation score
Br.Br.N=C(NCCc1ccc(I)cc1)SCCCc1cnc[nH]1 [Iodophenpropit dihydrobromide] | active: 1.67
